Literature values as cited in patent publication US20120164738A1 (priority 2007, published 2012).

Tested on: rodents
Conditions: in vivo

NC1=NC(C(=O)O)CS1 (stereo not shown) [ATCA, 2-aminothiazoline-4-carboxylic acid]
neurotoxicity: neurotoxicant, forming hippocampal CA1 lesions in rodents
